## scFv variants of Ab-14 (light chain) against a SARS-CoV-2 spike peptide

From the AlphaSeq antibody data of Li et al. 2023 (doi:10.1038/s41467-023-39022-2), copy in the FLAb collection.

All variants were tested on one target, the spike HR2 peptide PDVDLGDISGINAS (SARS-CoV-2).

Parent: Ab-14, a human scFv built as VH, the linker GGGGSGGGGSGGGGS, VL. Only the CDRs of the light chain vary.
VH: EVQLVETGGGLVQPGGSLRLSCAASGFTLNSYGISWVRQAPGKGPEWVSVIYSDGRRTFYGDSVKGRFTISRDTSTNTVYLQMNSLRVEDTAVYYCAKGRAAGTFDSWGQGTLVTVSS
VL: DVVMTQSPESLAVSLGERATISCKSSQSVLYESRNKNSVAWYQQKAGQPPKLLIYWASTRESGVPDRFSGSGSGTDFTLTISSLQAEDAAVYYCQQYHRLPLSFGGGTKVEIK

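The starting antibody came from a phage panning campaign against this peptide. These sequences belong to a second round, designed from the earlier measurements on random variants of the parent. Group labels follow the data file (Ctrl: baseline library sampled from a position-specific scoring matrix, with some repeated check sequences; En: ensemble of fine-tuned language models; GP: Gaussian process model; HC: hill climbing; Gen: genetic algorithm; Gibbs: Gibbs sampling; a sequence that several methods proposed may carry one label only). The scFvs were displayed on barcoded MATa yeast, the peptide on MATalpha yeast. After mating in shaken culture at 30 °C for 16 h, diploids were selected and their barcode pairs sequenced. Read counts were normalised to the haploid input and turned into Kd by a linear fit to BCL2-family pairs of known affinity, for each replicate. There are six technical replicates.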

Variants are written as CDR1, CDR2 and CDR3 of the light chain (limits as in the source). Parent: KSSQSVLYESRNKNSVA, WASTRES, QQYHRLPLS. Affinities are written as log10 Kd with Kd in nM; a lower number is a better binder. "ND" marks a missing value. The strain was present, yet no cells mated with the target were sequenced in that replicate, which points to weak or no binding. Some sequences occur more than once in the pool; their replicates are listed entry by entry, parted by semicolons. In the paper, a design with two or fewer of six values counts as a poor binder. Empty control strains, which show no peptide, gave a signal in 4% of pairings with all light chain designs; the median was 2.64 and 95% of these signals were weaker than 1.59. No background was subtracted. A sequence measured in both rounds can read differently, since the two assays cover different ranges.

CDR-L1 | CDR-L2 | CDR-L3 | group | log10 Kd, replicates
KMSQSDLMEMRNANSVA | NASTREM | QQYHRLPLS | GP_Gibbs | 0.21 0.13 -0.17 -0.08 0.15 0.00
MISDLTMYGSRKKNSVA | DSSTRGS | QQYHRLPLS | En_HC | -0.12 -0.26 -0.37 -0.49 -0.35 -0.25
KLSMVTGHMSVAKNNVA | EMETRLK | QQYNRLPLS | En_Gen | 0.08 -0.13 0.27 -0.17 -0.10 0.06
KLSQSVLYESRMKNNVA | NASTRMS | QQYHRLPLS | GP_Gen | 0.14 -0.15 -0.04 -0.31 -0.20 0.17
HLLDTVMQGSYYRNSVA | QESTRAD | QQYHRLPLS | En_HC | 0.87 0.72 0.93 0.64 0.85 0.94
KLQQSDLYGSRNKNSVA | QASTRMV | QAYHRLPLS | GP_Gibbs | 0.76 0.63 0.50 0.47 0.80 0.77
KFSQSVLYESRVKNGVA | NASTRES | QQYHRLPLS | GP_HC | 0.18 0.02 0.03 -0.11 -0.12 0.07
KFMISLEYQMAEQNAIA | HAEISTV | QQYSRLPIY | En_Gibbs | ND ND ND ND ND ND
IISQSFLGENHNKNSVA | QTSERGS | QQYDRLPLS | En_HC | 0.48 0.29 0.27 -0.08 0.25 0.30
KISQMVKVGSTLSNSIA | EEVTRAK | QQYHRLPLS | En_Gen | 0.99 1.02 1.02 1.24 0.65 1.18
KSSQSVLYESRNKNSIA | WASTRES | QQYHGLPLS | Ctrl | ND ND ND ND ND ND
KSSQSVLYTSRNKNSVA | WASVRES | QQYHRLPLS | Ctrl | ND 2.45 ND ND ND 1.99
TISQSTQQESHNKNSVA | DLNVRGS | QQYDRLPLS | En_HC | 0.32 0.35 0.32 0.65 0.53 0.52
QLLMATMQETYNKNSVA | HAQTRED | QSYHRLPLS | En_HC | 0.42 0.65 0.64 0.24 0.76 0.53
NVDISQNTNYNHKSNVA | DHDERVI | QQYSRLPLS | En_Gibbs | 0.12 -0.15 -0.03 0.03 0.04 -0.02
KSSWSVLFESRNKNSVA | DASTRSE | QQYHRLPLS | GP_HC | -0.09 -0.18 -0.28 -0.19 -0.17 0.02
KQSQSDLYESRNKNAVA | DASTRES | QMYHWLPLS | GP_HC | 1.13 1.05 1.98 1.01 2.48 2.04
KVSQSLLKESTNKNSVA | WASTREH | NQYHRMPLS | Ctrl | ND ND ND ND ND ND
KSSQSVLFETRNSNSVA | WASTRES | QQYHRLPLS | Ctrl | ND 2.34 2.16 2.23 1.28 1.39
HMSMLTLQGMRHRNSVA | QMTTREN | QQYDRLPLA | En_Gen | 2.13 1.90 2.46 1.78 2.07 1.95
MVTQMAMTGMKNKRSVA | NAETREK | QQYHRLPLI | En_Gen | 1.85 1.66 1.88 1.54 2.14 1.33
KSSQSLGYESSNKNSVA | WASTRES | QQYHRLPLS | Ctrl | 0.97 1.00 1.01 0.60 0.68 0.41
KSGQGVLYESRNKMSVA | GASTRES | QQYHRLPLS | GP_HC | 0.26 0.14 -0.04 0.47 0.07 0.02

Continued, with the values leading:

log10 Kd, replicates | CDR-L1 | CDR-L2 | CDR-L3 | group
0.55 0.37 0.51 0.49 0.52 0.28 | KVSQSVLMESRNANSVA | DASTRES | QQYHRLPLS | GP_HC
1.60 1.46 1.76 1.81 0.86 1.67 | MIFYGQERDIAHESSIA | NGMARVK | QQYHRLPLS | En_Gibbs
0.20 0.49 0.47 0.04 0.13 0.18 | KCSQNVGIMGRGKNNVA | EMTTREE | QQYDRLPLS | En_HC
ND ND ND ND ND ND | KVSQSVLYERRNKNSVA | WARNRES | QQYHRIPLS | Ctrl
ND ND ND ND ND ND | KITFQGRLYDAHWDSIA | QTNLYEQ | QQYDRLPLD | En_Gibbs
-0.05 0.11 -0.09 -0.04 -0.10 -0.07 | ALSQSVLYESRNKNSVA | HASTRES | QQYHRLPLS | GP_Gen
0.79 0.56 0.77 0.53 0.40 0.99 | SITVIDNPGSQGHNNIA | SGSCRAE | QQYIRLPLI | En_Gibbs
0.25 0.20 -0.19 0.02 -0.22 0.04 | KLQQSVLYESRNKNSVA | GASTRED | QQYHRLPLS | GP_Gen
0.00 0.07 0.02 0.46 0.46 1.27 | KLEQGVDMESRNKNSVA | NASMRED | QQYHRLPLS | GP_Gibbs
0.05 0.51 -0.03 -0.14 -0.29 0.06 | KLFDELSVEQVNARNVA | DALATHE | QQYVMLPLS | En_Gibbs
1.07 0.82 0.64 0.73 0.93 0.99 | HMSMLTLMGQRHVNSVA | QMTTREN | QQYDRLPLT | En_Gen
0.97 1.16 0.62 1.11 0.94 1.29 | HITYGMMVMGRHSKSIA | QAEERAK | QQYDRLPLV | En_Gen
0.12 0.18 0.01 -0.09 -0.03 0.12 | KLSESDLYESRNKNSVA | EASTRES | QQYHRLPLS | GP_Gen
0.19 -0.15 0.09 -0.50 0.12 0.15 | KISCSEYYEDRNKMSVA | DASQRLS | QQYHRLPLS | GP_Gibbs
2.19 0.58 1.59 0.86 1.24 1.66 | KVNGLMNIEQMNSKSVA | QSTTREN | QQYHRLPLS | En_HC
1.20 2.00 ND ND ND 1.83 | KSSQSVLYESRNKNSVA | WASTRES | QQYKELPLS | Ctrl
0.39 0.17 0.35 0.43 0.10 0.39 | KLAMITGLEKVSGNNVA | EMETRER | QQYNRLPLS | En_Gen
ND 1.55 ND 1.72 ND 1.82 | MISQMYNMGQFAINSVA | QASIRND | QQYDRLPLI | En_Gen
0.30 0.16 -0.04 -0.14 -0.04 0.13 | KLFQSNEYESRNKNSVA | NASQREW | QQYHRLPLS | GP_Gibbs
1.05 1.67 1.31 ND ND 2.27 | DSSQSVLFESRNKNSVA | EASTRES | QQYHRLYLS | Ctrl
ND ND 0.91 1.17 ND ND | KISQMFNVGTKNTNSLA | EMNTRGD | QDYHRLPLS | En_HC
-0.19 -0.21 -0.44 -0.28 -0.41 -0.34 | KLEFSVLGESRNKNAVA | SASQREQ | QQYHRLPLS | GP_Gibbs
1.48 1.45 1.39 1.05 1.73 2.16 | HITMGMYVAGRHHSSIA | QAETRAK | QQYDRLPLS | En_Gen
3.43 ND ND ND 3.17 ND; ND ND 1.78 2.32 2.39 ND; 2.00 2.80 3.78 2.92 2.71 ND; ND ND ND 3.07 ND ND; 1.61 ND ND 1.79 ND 2.90 | KYSQSVLYESRNKNSVA | WASTRES | QQYHGLPLS | Ctrl

The closing 4 entries, repeated:

CDR-L1 | CDR-L2 | CDR-L3 | group | log10 Kd, replicates
KISQMFNVGTKNTNSLA | EMNTRGD | QDYHRLPLS | En_HC | ND ND 0.91 1.17 ND ND
KLEFSVLGESRNKNAVA | SASQREQ | QQYHRLPLS | GP_Gibbs | -0.19 -0.21 -0.44 -0.28 -0.41 -0.34
HITMGMYVAGRHHSSIA | QAETRAK | QQYDRLPLS | En_Gen | 1.48 1.45 1.39 1.05 1.73 2.16
KYSQSVLYESRNKNSVA | WASTRES | QQYHGLPLS | Ctrl | 3.43 ND ND ND 3.17 ND; ND ND 1.78 2.32 2.39 ND; 2.00 2.80 3.78 2.92 2.71 ND; ND ND ND 3.07 ND ND; 1.61 ND ND 1.79 ND 2.90